Here are results for 7 substances from patent US9181303B2, “Treatment of bacterial infections with cyclic antimicrobial peptides” (N[…], priority 2005, dated 2015).

For series [1], the system named is pooled human red blood cells. Kind of series: Haemolysis assay. The class given is cell-based. Here is the method: The peptide under study was aliquoted at the desired concentration in triplicate in Nunc 96 well plates, and serial 1:1 dilutions (100 μl) were made. 100 μl of washed (3 washes of 50 ml HBSS) pooled human red blood cells (RBC) (1×10^8 RBC/ml) were added to the test wells and incubated at 37° C. for 3 hours. After incubation a further 100 μl of HBSS was added to all the wells and the plate was incubated at 4° C. overnight. 100 μl of the supernatant was removed and placed in a fresh microtitre plate which was read in a Sunrise plate reader (Tascam) at 450/620 nm. Control wells (quadruplicate) of buffer alone, buffer and RBCs, and H2O and RBC were also included. The data were plotted and statistically analyzed using Graph Pad (Prism software).

A short description of series [2]: Hepatotoxicity of cyclized peptides. The conditions noted are these: at concentrations similar to those demonstrating antifungal activity.
The mark [3] stands for this setting: Maximum Concentration Tested 10.0 mM.

Consider “Cyclic-DO-DO-DO-DO-DO-DO-DO-G [Peptide 7]”, for which the Haemolysis result in series [1] (setting [3]) is “None”.

On to “Cyclic-DK-DK-DK-DK-DK-DK-DK-G [Peptide 8]”, for which the Haemolysis entry in series [1] (setting [3]) is recorded as “None”.

Cyclic-K-K-K-K-K-K-K-G [Peptide 3]: in series [1] (setting [3]), the Haemolysis entry is given as “None”.

In the case of Cyclic-R-R-R-R-R-R-R-G [Peptide 4], the Haemolysis entry in series [1] (setting [3]) is “None”.

As for Cyclic-R-R-R-R-R-R-R [Peptide 2], in series [2], the Hepatotoxicity entry was “no hepatotoxicity”. Moreover, the Haemolysis entry in series [1] (Maximum Concentration Tested 73.7 mM) is reported as “None”.

As for Cyclic-O-O-O-O-O-O-O-G [Peptide 5], the Haemolysis entry in series [1] (setting [3]) is “None”.

In the case of “Cyclic-DR-DR-DR-DR-DR-DR-DR-G [Peptide 6]”, the Haemolysis entry in series [1] (Maximum Concentration Tested 5.0 mM) was “None”.
